{"source": "patent US20240270695A1", "about": "“COMPOUNDS, COMPOSITIONS AND METHODS OF TREATING DISORDERS” (Chengdu Anticancer Bioscience LTD, priority 2021, published 2024)", "test_system": "RPE-Neo or RPE-MYC or RPE-MYC expressing an EGFP-Histone 2B fusion protein", "experiment": "Phenotypic screening assay (arrest in mitosis, change in DNA content, cell death; GE IN-Cell Analyzer 2000)", "assay_type": "cell-based, Human", "conditions": "min. effective conc.; compounds 20 nM to 20 μM; 24, 48 or 72 hours"}
{"smiles": "COC(=O)C1=C(O)c2ccccc2N(Cc2ccccc2)C(=O)C1", "note": "[Example 1, Methyl 1-benzyl-5-hydroxy-2-oxo-2,3-dihydro-1H-benzo[b]azepine-4-carboxylate]", "values": [{"measurement": "Cell Death (>30%)", "result": "D (greater than 30.0 μM and less than 1000 μM)"}]}
{"smiles": "CNC(=O)C1=C(O)c2ccccc2N(Cc2ccccc2)C(=O)C1", "note": "[Example 72, 1-benzyl-5-hydroxy-N-methyl-2-oxo-2,3-dihydro-1H-benzo[b]azepine-4-carboxamide]", "values": [{"measurement": "Cell Death (>30%)", "result": "D (greater than 30.0 μM and less than 1000 μM)"}]}
